Test: in vivo monitoring of radiolabeled analyte uptake in tissue with subcutaneous fiber optic beta radiation probes

## C-14 labeled 5-Fluorouracil [^14C-5FU]
120 μCi IV in tail vein, 300 gram Fisher 344 rat, probes in flank tumor and normal scapula tissue, study #6, FIG. 12B
  time after dosing within which concentrations peak: 10 to 30 min
120 μCi IV in tail vein, 300 gram Fisher 344 rat, study #6, FIG. 12B
  time of ^14C concentration peak, tumor tissue versus normal tissue: peaks earlier in the tumor tissue than in the normal tissue
250 μCi intraperitoneal, tumor bearing 270 g Fisher 344 rat, dual probe, study #5, FIG. 12A
  absorption into flank tissue and scapular tumor after injection: relatively slowly absorbed
250 μCi intraperitoneal, tumor bearing 270 g Fisher 344 rat, study #5, FIG. 12A
  time from injection after which ^14C concentrations continue to rise: 90 to 100 min
